# Experimental data taken from patent US20140178318A1, “NOVEL COMPOUNDS” (DSM IP ASSETS B.V., priority 2009, published 2014).
# Key:
# [1] = Comparative example: solubility of BMDBM in 1:1 mixture of C12-15 alkyl benzoate and other UV-filter; details: solvent alone, baseline repeated under each UV-filter column
# [2] = Solubility of BMDBM and BEMT in C12-15 alkyl benzoate and in 1:1 mixtures with PG-UVA1/PG-UVA2
# [3] = e.g. C12-15 alkyl benzoate, dibutyl adipate or diisopropyl sebacate; typical value; cited from earlier work
# [4] = Reduction of solvent necessary to dissolve solid UV-filter (BMDBM); assay type: physicochemical
# Excerpt: a.) 2.0 g of diisopropyl sebacate are necessary to solubilize 0.5 g BMDBM. However, only 1.4 g of a 1:1 (w/w) mixture of PG-UVA2 of example 1 and diisopropyl sebacate is needed to dissolve 0.5 g BMDBM resulting in a reduction of the cosmetic solvent necessary to dissolve BMDBM of 65%.
# b) 3.0 g of C12-15 alkyl benzoate are necessary to solubilize 0.5 g BMDBM, whereas only 2.0 g of a 1:1 (w/w) mixture of PG-UVA2 of example 2 and C12-15 alkyl benzoate is necessary to dissolve 0.5 g of BMDBM resulting in a reduction of the cosmetic solvent necessary to dissolve BMDBM of 66%.
# [5] = C12-15 alkyl benzoate/PG-UVA1 1:1 versus C12-15 alkyl benzoate
substance,measurement,setting,value
Butyl Methoxydibenzoylmethane [BMDBM],Solubility of BMDBM in C12-15 alkyl benzoate,[1],14 wt.-%
same,re-crystallization on storage,"[2]; 200 mg BMDBM in 800 mg C12-15 alkyl benzoate/PG-UVA1 1:1, 1 month at RT",no re-crystallization occurred
same,Δ solubility relating to cosmetic solvent (BMDBM),[2]; C12-15 alkyl benzoate/PG-UVA1 1:1,+13 wt.-%
same,Increase of solubility BMDBM,[2]; [5],+42%
same,Δ solubility of BMDBM,[2]; [5],+6 wt.-%
same,Solubility in C12-15 alkyl benzoate,"[2]; saturation of the solvent, content in supernatant by HPLC",14 wt.-%
same,solubility in the conventional cosmetic oils,[3],less than 20%
same,amount of C12-15 alkyl benzoate necessary to solubilize 0.5 g BMDBM,[4]; C12-15 alkyl benzoate alone,3.0 g
same,amount of diisopropyl sebacate necessary to solubilize 0.5 g BMDBM,[4]; diisopropyl sebacate alone,2.0 g
